By UniProt entry, the sequences of proteins in these tests, tags left out.
UniProt P31652, whole entry: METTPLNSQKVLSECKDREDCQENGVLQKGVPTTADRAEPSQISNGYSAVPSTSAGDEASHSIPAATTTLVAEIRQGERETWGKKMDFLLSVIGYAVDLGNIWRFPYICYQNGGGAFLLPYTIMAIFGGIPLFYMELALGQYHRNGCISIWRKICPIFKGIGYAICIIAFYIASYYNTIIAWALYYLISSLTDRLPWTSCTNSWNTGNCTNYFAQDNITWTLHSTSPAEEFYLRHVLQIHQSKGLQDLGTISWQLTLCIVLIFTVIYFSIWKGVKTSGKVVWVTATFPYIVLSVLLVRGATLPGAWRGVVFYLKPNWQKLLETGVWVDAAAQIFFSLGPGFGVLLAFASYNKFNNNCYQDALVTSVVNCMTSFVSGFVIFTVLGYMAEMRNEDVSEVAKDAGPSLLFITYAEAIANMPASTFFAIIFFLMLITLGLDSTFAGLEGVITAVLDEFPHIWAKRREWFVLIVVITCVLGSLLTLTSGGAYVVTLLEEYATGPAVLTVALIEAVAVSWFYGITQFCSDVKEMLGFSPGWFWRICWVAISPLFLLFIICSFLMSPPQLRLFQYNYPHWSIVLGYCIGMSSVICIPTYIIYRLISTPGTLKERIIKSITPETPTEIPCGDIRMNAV
UniProt P23977, whole entry: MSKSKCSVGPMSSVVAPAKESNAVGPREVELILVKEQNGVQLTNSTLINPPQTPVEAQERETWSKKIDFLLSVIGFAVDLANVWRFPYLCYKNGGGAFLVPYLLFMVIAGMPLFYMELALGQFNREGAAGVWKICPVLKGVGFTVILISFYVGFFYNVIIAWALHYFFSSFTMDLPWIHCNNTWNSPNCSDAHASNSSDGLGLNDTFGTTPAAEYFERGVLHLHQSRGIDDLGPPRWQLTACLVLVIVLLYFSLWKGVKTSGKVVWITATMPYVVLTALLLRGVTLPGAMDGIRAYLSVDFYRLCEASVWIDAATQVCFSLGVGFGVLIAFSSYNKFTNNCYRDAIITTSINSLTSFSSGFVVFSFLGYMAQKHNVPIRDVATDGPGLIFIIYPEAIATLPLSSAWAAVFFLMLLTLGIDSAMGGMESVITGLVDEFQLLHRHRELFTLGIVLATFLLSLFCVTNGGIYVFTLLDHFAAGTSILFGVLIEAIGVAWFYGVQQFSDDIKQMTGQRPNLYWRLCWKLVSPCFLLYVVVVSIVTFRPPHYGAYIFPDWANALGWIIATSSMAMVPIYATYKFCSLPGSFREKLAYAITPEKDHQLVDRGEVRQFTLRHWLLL

According to patent US20060083680A1, “Diphenyl ether derivatives and their use for imaging serotonin transporters” (The Trustees of the University of Pennsylvania, priority 2004, published 2006):

Tests used:
[1] = biological target: T1, SERT (serotonin transporter) (Rattus norvegicus, UniProt P31652); assay: In vitro binding assay, membranes of LLC-PK1 cells expressing SERT, [^125I]IDAM
T1 construct: membrane homogenates
Procedure: Preparation of membrane homogenates: LLC-PK1 cells from pig kidney permanently expressing DAT, NET and SERT, respectively (LLC-DAT, LLC-NET and LLC-SERT) were kindly provided by Dr. G. Rudnick at Yale University. These cells were grown to confluence as a monolayer on 15 cm petri dish as reported previously. […] Cells were then washed once with phosphate buffer saline (w/ Ca^2+ and Mg^2+) (Bio-Whittaker) and harvested with 10 mL PBS by scraping. The cell suspensions were homogenized on ice for 20 strokes and centrifuged at 17,000 rpm for 20 min at 4° C. The pellets were re-suspended in PBS, frozen quickly in liquid N2 and stored in a −70° C. freezer.
Binding assays: Binding assays were performed in a final volume of 0.2 mL. […] Incubation was carried out for one h at room temperature and the bound ligand was collected on glass fiber filters (Schleicher & Schuell No. 25, Keene, N.H.) presoaked with 1% polyethylenimine (Sigma, St. Louis, Mo.) and counted in a gamma counter (Packard 5000). Results of competition experiments were subjected to nonlinear regression analysis using EBDA (Elsevier-BIOSOFT, Cambridge, UK).

SERT binding sites = biological target: T2, SERT binding sites (Rattus norvegicus, UniProt P31652); assay: In vivo competitive binding / blocking of [^125I]4 regional uptake; conditions: rats, drug 2 mg/kg i.v. 5 min prior to tracer, 120 min after [^125I]4
T2 construct: from tissue; host or cells: rat brain in vivo (hypothalamus, cortex, striatum, hippocampus, cerebellum); ex vivo brain sections
Description: The reduction of regional specific binding in the drug-pretreated rats was compared to the control animals with saline pretreatment.

[2] = biological target: T3, DAT (dopamine transporter) (Rattus norvegicus, UniProt P23977); assay: In vitro binding assay, membranes of LLC-PK1 cells expressing DAT, [^125I]IPT
T3 construct: membrane homogenates
Procedure: Preparation of membrane homogenates: LLC-PK1 cells from pig kidney permanently expressing DAT, NET and SERT, respectively (LLC-DAT, LLC-NET and LLC-SERT) were kindly provided by Dr. G. Rudnick at Yale University. These cells were grown to confluence as a monolayer on 15 cm petri dish as reported previously. (Gu, H., Wall, S. C. and Rudnick G., Journal of Biological Chemistry, 269: 7124-7130 (1194)). Cells were then washed once with phosphate buffer saline (w/ Ca^2+ and Mg^2+) (Bio-Whittaker) and harvested with 10 mL PBS by scraping. The cell suspensions were homogenized on ice for 20 strokes and centrifuged at 17,000 rpm for 20 min at 4° C. The pellets were re-suspended in PBS, frozen quickly in liquid N2 and stored in a −70° C. freezer.
Binding assays: Binding assays were performed in a final volume of 0.2 mL. Aliquots of membrane suspensions (100 μL, corresponding to 30-40 g protein) were mixed with 50 mM Tris-HCl, pH 7.4, 120 mM NaCl and 0.1% BSA (all from Sigma, St. Louis, Mo.), 0.4 nM [^125I]IPT or [^125I]IDAM, and 8-10 concentrations (10^−10 to 10^−5 M) of competing drugs. […] Incubation was carried out for one h at room temperature and the bound ligand was collected on glass fiber filters (Schleicher & Schuell No. 25, Keene, N.H.) presoaked with 1% polyethylenimine (Sigma, St. Louis, Mo.) and counted in a gamma counter (Packard 5000). […]

Structure (SMILES): CSc1ccc([C@@H]2CN3CCC[C@@H]3c3ccccc32)cc1 [(+)McN5652]
- Ki ([1]; LLC-PK1 cells expressing SERT, read-out: Ki SERT): 0.009 ± 0.002 nM

Structure (SMILES): CNCCC(Oc1ccccc1OC)c1ccccc1 (stereo not shown) [Nisoxetine]
- Ki [1]: 203 ± 4 nM
- effect of pretreatment on specific binding/uptake of [^125I]4 in hypothalamus (SERT binding sites): did not show any significant effect
- Ki [2]: > 1000 nM

Read-outs that look alike come from different tables or passages of the source.
